Measured values reported in US4668672A, “Feed compositions containing pyridylalkylhydrazides” (SmithKline Beckman Corporation, priority 1985, dated 1987).

System: swine ileal or cecal inoculum (filtrate of cannula material)
Assay: In vitro swine procedure (incubation of inoculum from cannulated swine, in vitro fistula procedure)
Design: species or system swine (Yorksire barrow)
Details: 5 hours at 37°, blank control = 100%; for LAC (L lactic acid): 1.67 ppm

Structure (SMILES) | LAC (L lactic acid) | GLU (glucose) (16.67 ppm) | GLU (glucose) (166.67 ppm)
COC(=O)NN=C(C)c1ccccn1 [drawing 3] | 95 % of Control Values | 117 % of Control Values | 114 % of Control Values
COC(=O)NN=Cc1ccccn1 [drawing 4] | 96 % of Control Values | 114 % of Control Values | 92 % of Control Values
